Binding of CDR-mutated scFvs to a peptide of the spike HR2 region

All variants were tested on one target, the spike HR2 peptide PDVDLGDISGINAS (SARS-CoV-2).

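Phage display of a naive human antibody library on the peptide gave the parent. This is the validation round: designs drawn from the data on random variants, tested in the same kind of assay. Several design methods are mixed in this list. Affinity was read by AlphaSeq, a pooled yeast mating assay with surface-displayed partners. Binding brings cells together so that they mate, and sequencing counts the barcode pairs among the diploids. The ratio of observed to expected reads was calibrated, replicate by replicate, on BCL2-family standards whose Kd was known from biolayer interferometry. Mating was done six times.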

Parent: Ab-14, a human scFv built as VH, a (GGGGS)3 linker, VL. Only the CDRs of the heavy chain vary.
VH: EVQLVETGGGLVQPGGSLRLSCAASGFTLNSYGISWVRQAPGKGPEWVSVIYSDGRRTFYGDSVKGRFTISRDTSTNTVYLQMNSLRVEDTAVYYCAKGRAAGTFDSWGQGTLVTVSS
VL: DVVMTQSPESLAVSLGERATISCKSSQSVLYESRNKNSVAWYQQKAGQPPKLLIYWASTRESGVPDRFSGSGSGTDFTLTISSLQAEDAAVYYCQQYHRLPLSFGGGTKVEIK

The whole VH of each variant is written out. This list holds designs with more than six substitutions. Values are log10 of the apparent Kd in nM; lower means stronger binding. Replicates are averaged; those with no signal do not enter the mean. A pair that was not seen in any replicate is written "no signal"; this usually means weak binding, but a binder can also be missed. As a blank, each scFv also met three strains without target: over all heavy chain designs, 1% of these pairings were detected, typically at 2.08 and seldom below 0.84. Values of this round are not directly comparable with the first-round values of the same sequences. The authors averaged sequences with at least three values out of six and counted those with two or fewer as poor binders. Of ten entries with the parent sequence, four were seen in most replicates (averages 0.34 to 2.37), three in one and three in none, so single entries are noisy.

With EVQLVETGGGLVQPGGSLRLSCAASGFDLDEYGISWVRQAPGKGPEWVSVIYADGVRTAYADSVKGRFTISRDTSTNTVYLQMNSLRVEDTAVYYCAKGNEAGTFDVWGQGTLVTVSS the result was 0.90 (6 of 6 replicates). With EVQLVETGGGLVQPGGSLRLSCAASGFDLNEYGISWVRQAPGKGPEWVSVIYADGKRTAYADSVKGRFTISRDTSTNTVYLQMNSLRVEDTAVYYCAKGENAGTFDAWGQGTLVTVSS the result was -0.48 (6 of 6 replicates). Variant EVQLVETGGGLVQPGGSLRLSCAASGFSIDEYGISWVRQAPGKGPEWVSVIYADGNRSAYIDAVKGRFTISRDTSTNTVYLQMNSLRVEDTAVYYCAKGNYGSDFLEWGQGTLVTVSS showed no signal (0 of 6 replicates). For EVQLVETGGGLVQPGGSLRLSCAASGFDLNEYGISWVRQAPGKGPEWVSVIYADGMRTNYTDSVKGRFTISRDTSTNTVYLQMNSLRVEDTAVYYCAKGNEAGTFDSWGQGTLVTVSS, the assay gave no signal (0 of 6 replicates). Variant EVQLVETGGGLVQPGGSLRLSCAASGFDLNEYGISWVRQAPGKGPEWVSVIYADGVRTAYSDSVKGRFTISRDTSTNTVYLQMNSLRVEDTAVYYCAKGEVAGTFDLWGQGTLVTVSS showed no signal (0 of 6 replicates). For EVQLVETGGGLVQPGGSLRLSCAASGFDLGEYGISWVRQAPGKGPEWVSVIYADGRRTAYQDSVKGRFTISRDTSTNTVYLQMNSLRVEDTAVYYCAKGLNEGMLVIWGQGTLVTVSS, the assay gave no signal (0 of 6 replicates).

Variant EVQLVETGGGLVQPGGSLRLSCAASGYSLDDYGISWVRQAPGKGPEWVSVIYADGKRKSYAEDVKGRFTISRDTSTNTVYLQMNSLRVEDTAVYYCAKGNSGGSFMDWGQGTLVTVSS gave 2.90 (1 of 6 replicates). For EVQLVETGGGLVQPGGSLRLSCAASGFDLNEYGISWVRQAPGKGPEWVSVIYADGRRKAYADSVKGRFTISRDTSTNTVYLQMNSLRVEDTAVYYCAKGQNAGTFDVWGQGTLVTVSS, the assay gave -1.11 (5 of 6 replicates). Variant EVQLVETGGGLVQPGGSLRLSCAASVFDLNSYGISWVRQAPGKGPEWVSVIYFKGRRWFYGDSVKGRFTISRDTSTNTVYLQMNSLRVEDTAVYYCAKGRAAGWFNSWGQGTLVTVSS showed no signal (0 of 6 replicates). Variant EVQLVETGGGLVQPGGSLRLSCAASGFKLDEYGISWVRQAPGKGPEWVSVIYADGQRAVYTENVKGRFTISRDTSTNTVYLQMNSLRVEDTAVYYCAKGHGFNSLVGWGQGTLVTVSS gave 0.65 (6 of 6 replicates). With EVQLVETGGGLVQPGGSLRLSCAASGYSLDDYGISWVRQAPGKGPEWVSVIYADGKRKSYAEDVKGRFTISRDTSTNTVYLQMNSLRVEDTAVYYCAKGNVGGSFMNWGQGTLVTVSS the result was no signal (0 of 6 replicates). Variant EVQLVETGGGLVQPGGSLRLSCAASGFDLNEYGISWVRQAPGKGPEWVSVIYADGRRTFYSDSVKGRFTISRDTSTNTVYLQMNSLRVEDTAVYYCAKGNVAGTFDIWGQGTLVTVSS gave -0.68 (6 of 6 replicates).

Variant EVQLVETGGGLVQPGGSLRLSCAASGFDLNEYGISWVRQAPGKGPEWVSVIYADGRRTAYADDVKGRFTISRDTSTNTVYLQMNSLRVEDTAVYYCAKGNNAGTFDTWGQGTLVTVSS showed -0.10 (6 of 6 replicates). Variant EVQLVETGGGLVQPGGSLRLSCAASGFDLNEYGISWVRQAPGKGPEWVSVIYADGRRTAYLDSVKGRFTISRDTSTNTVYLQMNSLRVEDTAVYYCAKGQLAGTFDIWGQGTLVTVSS gave -0.04 (6 of 6 replicates). For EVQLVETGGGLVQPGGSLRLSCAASGFDLDEYGISWVRQAPGKGPEWVSVIYADGSRTAYADSVKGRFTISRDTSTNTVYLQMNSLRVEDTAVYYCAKGEVAGTFDTWGQGTLVTVSS, the assay gave -0.26 (6 of 6 replicates). Variant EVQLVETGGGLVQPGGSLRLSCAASGFDLNEYGISWVRQAPGKGPEWVSVIYADGKRTAYSDSVKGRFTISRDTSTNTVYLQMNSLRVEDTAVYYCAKGGNAGTFDQWGQGTLVTVSS gave -0.20 (6 of 6 replicates). Variant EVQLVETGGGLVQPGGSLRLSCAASGFDLDEYGISWVRQAPGKGPEWVSVIYADGRRTSYADSVKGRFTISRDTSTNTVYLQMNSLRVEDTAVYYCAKGENAGTFDVWGQGTLVTVSS showed 2.39 (1 of 6 replicates). For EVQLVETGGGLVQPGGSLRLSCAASGKSIDEYGISWVRQAPGKGPEWVSVIYADGMRKEYTDSVKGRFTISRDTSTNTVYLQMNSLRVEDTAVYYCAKGQFDDAMDLWGQGTLVTVSS, the assay gave no signal (0 of 6 replicates).

Variant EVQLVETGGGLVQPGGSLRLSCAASGFDLNEYGISWVRQAPGKGPEWVSVIYADGQRTAYADTVKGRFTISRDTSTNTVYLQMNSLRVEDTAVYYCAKGENAGTFDVWGQGTLVTVSS showed -0.32 (6 of 6 replicates). For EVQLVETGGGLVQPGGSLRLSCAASGFDLNEYGISWVRQAPGKGPEWVSVIYADGVRTAYSDSVKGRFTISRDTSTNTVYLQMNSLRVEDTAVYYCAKGHNAGTFDVWGQGTLVTVSS, the assay gave -0.26 (6 of 6 replicates). Variant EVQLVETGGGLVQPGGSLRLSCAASGFDLDEYGISWVRQAPGKGPEWVSVIYADGQRTAYTDSVKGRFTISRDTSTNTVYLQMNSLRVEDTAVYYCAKGNTAGTFDVWGQGTLVTVSS gave 1.72 (5 of 6 replicates). Variant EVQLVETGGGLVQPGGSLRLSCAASGKDIEEYGISWVRQAPGKGPEWVSVIYADGMRQAYLDKVKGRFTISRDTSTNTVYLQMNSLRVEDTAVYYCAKGNNGGSGSFWGQGTLVTVSS showed no signal (0 of 6 replicates). Variant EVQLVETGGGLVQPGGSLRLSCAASGFNLDEYGISWVRQAPGKGPEWVSVIYADGRRMSYTDSVKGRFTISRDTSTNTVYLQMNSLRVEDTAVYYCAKGGLGKYLTDWGQGTLVTVSS gave no signal (0 of 6 replicates). With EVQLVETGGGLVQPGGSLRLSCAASGFDLSEYGISWVRQAPGKGPEWVSVIYADGERANYVSNFKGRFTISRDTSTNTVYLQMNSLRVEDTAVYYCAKGVQAGTFVLWGQGTLVTVSS the result was no signal (0 of 6 replicates).

From the AlphaSeq antibody data of Li et al. 2023 (doi:10.1038/s41467-023-39022-2), copy in the FLAb collection.